Experimental findings from US11319306B2, “Compositions and methods for treating neurodegenerative diseases” (Azevan Pharmaceuticals, Inc., priority 2014, dated 2022) are described below.

The chains behind the UniProt entries cited, without tags or fusion partners.
UniProt P37288, whole entry: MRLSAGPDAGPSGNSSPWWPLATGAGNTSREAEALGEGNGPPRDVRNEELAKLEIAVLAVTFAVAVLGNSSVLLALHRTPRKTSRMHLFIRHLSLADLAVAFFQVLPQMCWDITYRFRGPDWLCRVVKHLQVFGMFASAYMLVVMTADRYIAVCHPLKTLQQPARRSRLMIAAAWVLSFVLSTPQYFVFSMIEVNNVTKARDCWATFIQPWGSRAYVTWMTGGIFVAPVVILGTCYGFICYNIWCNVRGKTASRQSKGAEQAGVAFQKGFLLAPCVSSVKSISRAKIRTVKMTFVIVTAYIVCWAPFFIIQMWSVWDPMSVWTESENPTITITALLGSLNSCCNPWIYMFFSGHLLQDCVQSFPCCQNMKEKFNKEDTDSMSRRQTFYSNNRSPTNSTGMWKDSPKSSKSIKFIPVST

SMILES strings stand for the structures.

The test concerns the target human V1a receptor (Homo sapiens, UniProt P37288). As to the kind of experiment: Human vasopressin V1a receptor binding assay (3H-AVP competition, hV1a CHO cells).

As for `O=C(NCc1cccc(C(F)(F)F)c1)[C@H](CCC(=O)N1CCC(N2CCCC2)CC1)N1C(=O)[C@@H](N2C(=O)OC[C@@H]2c2ccccc2)[C@H]1/C(Cl)=C/c1ccccc1`, the IC50 (read-out: V1a Binding Affinity IC50, CHO cells expressing human V1a) was 11 nM. The Ki (read-out: V1a Ki, CHO cells expressing human V1a) was found to be 6.71 nM.

One may read the IC50 as the concentration that inhibits the measured activity by half. In general, Ki refers to the equilibrium dissociation constant of an inhibitor or competing ligand from its target.
